Laboratory results as given in patent US20090203577A1 (EXELIXIS, INC., priority 2005, published 2009).

Protein sequences, listed by entry. Tags and fused reporters are not part of them. Residues count along the entry.
UniProt Q96RI1, 1-472 isoform 2: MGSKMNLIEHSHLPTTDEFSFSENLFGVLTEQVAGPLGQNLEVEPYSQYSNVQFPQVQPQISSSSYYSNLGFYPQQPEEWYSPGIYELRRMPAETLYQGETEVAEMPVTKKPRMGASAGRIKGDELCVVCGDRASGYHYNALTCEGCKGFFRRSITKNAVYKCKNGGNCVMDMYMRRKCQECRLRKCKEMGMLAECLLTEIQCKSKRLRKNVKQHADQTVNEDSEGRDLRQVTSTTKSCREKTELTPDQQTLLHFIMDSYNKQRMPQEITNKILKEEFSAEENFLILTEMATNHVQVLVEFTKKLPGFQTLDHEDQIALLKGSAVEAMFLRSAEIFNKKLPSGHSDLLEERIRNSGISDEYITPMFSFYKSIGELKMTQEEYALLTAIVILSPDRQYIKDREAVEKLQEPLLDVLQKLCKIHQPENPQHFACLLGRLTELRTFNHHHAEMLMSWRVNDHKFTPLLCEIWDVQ
UniProt P19793, whole entry partner: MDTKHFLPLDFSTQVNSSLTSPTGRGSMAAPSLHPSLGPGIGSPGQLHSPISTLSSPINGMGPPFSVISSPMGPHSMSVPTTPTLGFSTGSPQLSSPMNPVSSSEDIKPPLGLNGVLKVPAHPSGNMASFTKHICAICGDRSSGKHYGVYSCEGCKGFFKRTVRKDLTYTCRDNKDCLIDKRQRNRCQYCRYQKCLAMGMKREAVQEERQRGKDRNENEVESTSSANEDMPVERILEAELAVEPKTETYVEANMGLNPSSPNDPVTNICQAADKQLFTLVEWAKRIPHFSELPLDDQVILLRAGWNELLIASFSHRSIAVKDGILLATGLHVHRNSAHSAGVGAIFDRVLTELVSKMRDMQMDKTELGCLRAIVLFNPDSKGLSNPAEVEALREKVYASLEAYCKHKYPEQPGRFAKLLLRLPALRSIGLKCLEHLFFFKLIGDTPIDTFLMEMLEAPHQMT

Legend:
[1] = biological target: human farnesoid X receptor (Homo sapiens, UniProt Q96RI1); experiment: FXR in vitro assays (farnesoid X receptor/ECREx7 co-transfection assay, TR-FRET assay), Table I; type: cell-based; details: for EC50: read-out: EC50 μM, agonist activity, one or more of the in vitro assays; for % Efficacy: relative to maximum response of chenodeoxycholic acid (CDCA)
[2] = Kinetic solubility assay; details: 500 μM assay solution in PBS, pH7.4 from DMSO stock, filtration, HPLC-UV

Row | Structure (SMILES) | EC50 [1] | % Efficacy [1] | Kinetic Solubility μM [2]
1 | CC(C)OC(=O)C1=CN(C(=O)c2ccc(F)c(F)c2)CC(C)(C)c2c1[nH]c1ccc(O)cc21 | 0.1 to 1 µM | A (A=>100%) | 
2 | CC(C)OC(=O)C1=CN(C(=O)c2ccc(F)c(F)c2)CC(C)(C)c2c1[nH]c1cc(OC(=O)NCCN3CCCCC3)ccc21 | 0.01 to 0.1 µM | A (A=>100%) | E (E=>10 μM)
